The values below come from patent publication US20090099094A1, “Use of Somatostatin Agonists to Treat Medullary Thyroid Carcinoma” (priority 2007, published 2009).

Chains of the proteins cited; added tags and fusions are not shown. Lines headed by an entry give the natural chain unless they say otherwise; changes in a name come on top.
UniProt P30874: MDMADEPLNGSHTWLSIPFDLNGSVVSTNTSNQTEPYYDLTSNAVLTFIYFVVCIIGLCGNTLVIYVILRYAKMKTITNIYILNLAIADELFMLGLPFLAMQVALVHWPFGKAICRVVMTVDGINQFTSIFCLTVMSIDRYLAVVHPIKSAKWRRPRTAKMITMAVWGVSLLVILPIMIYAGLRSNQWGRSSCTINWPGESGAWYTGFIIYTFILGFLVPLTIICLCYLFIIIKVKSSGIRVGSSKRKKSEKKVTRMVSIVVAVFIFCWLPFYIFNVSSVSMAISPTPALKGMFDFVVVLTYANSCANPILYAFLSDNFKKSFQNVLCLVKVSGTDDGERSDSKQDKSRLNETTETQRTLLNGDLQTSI
UniProt P35346: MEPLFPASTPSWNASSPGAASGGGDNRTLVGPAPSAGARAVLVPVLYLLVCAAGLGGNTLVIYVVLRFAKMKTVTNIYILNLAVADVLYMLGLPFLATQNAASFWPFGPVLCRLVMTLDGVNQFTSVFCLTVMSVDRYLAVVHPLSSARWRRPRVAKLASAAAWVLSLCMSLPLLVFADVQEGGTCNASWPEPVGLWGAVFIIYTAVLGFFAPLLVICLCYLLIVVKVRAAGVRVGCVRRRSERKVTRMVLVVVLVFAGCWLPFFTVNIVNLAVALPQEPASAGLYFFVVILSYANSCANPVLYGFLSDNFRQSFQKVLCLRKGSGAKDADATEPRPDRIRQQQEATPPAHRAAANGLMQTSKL
UniProt P32745: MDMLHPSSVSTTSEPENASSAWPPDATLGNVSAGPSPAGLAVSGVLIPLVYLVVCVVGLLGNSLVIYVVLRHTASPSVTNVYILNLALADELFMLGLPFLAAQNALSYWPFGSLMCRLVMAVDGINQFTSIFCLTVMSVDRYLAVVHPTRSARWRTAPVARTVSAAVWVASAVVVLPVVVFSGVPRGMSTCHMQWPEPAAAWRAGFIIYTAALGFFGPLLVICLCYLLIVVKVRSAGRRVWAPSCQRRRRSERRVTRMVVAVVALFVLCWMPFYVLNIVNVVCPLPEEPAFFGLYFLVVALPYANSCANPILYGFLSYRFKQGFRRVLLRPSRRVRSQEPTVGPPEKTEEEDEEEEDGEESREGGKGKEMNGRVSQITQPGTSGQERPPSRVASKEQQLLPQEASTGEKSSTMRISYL

The structures appear in SMILES notation.

As usually defined, the Ki is a dissociation constant, usually derived from enzyme kinetics or from competition with a known ligand.

The target of one assay is SSTR2 (Homo sapiens, UniProt P30874). Description: SSTR receptor binding affinity (Ki), SSTR2. Conditions: read-out: SSTR Specificity Ki SSTR2. The text has this:
What is meant by an SSTR-2 receptor selective agonist is an SSTR-2 receptor agonist which has a higher binding affinity (i.e., lower Ki) for SSTR-2 than for any other somatostatin receptor i.e., SSTR-1, SSTR-3, SSTR-4 or SSTR-5.

Another assay has as its target SSTR5 (Homo sapiens, UniProt P35346). Description: SSTR receptor binding affinity (Ki), SSTR5. Conditions: read-out: SSTR Specificity Ki SSTR5.
The target in the next assay is SSTR3 (Homo sapiens, UniProt P32745). Description: SSTR receptor binding affinity (Ki), SSTR3. As to conditions: read-out: SSTR Specificity Ki SSTR3. The text has this:
What is meant by an SSTR-3 receptor selective agonist is an SSTR-3 receptor agonist which has a higher binding affinity (i.e., lower Ki) for SSTR-3 than for any other somatostatin receptor i.e., SSTR-1, SSTR-2, SSTR-4 or SSTR-5.

Consider `CC[C@@H]1NC(=O)[C@H](CCCCN)NC(=O)[C@@H](Cc2c[nH]c3ccccc23)NC(=O)[C@H](Cc2ccc(O)cc2)NC(=O)[C@@H](NC(=O)[C@@H](Cc2ccccc2)NS(=O)(=O)CCN2CCN(CCO)CC2)CSSC[C@@H](C(=O)N[C@H](C(N)=O)[C@@H](C)O)NC1=O` [4-(2-Hydroxyethyl)-1-piperazine-2-ethanesulfonyl-D-Phe-c[Cys-Tyr-D-Trp-Lys-Abu-Cys]-Thr-NH2], for which the Ki on SSTR2 is 0.18 nM.

`CC[C@@H]1NC(=O)[C@H](CCCCN)NC(=O)[C@@H](Cc2c[nH]c3ccccc23)NC(=O)[C@H](Cc2ccc(O)cc2)NC(=O)[C@@H](NC(=O)[C@@H](Cc2ccccc2)NC(=O)CN2CCN(CCO)CC2)CSSC[C@@H](C(=O)N[C@H](C(N)=O)[C@@H](C)O)NC1=O` [4-(2-Hydroxyethyl)-1-piperazinylacetyl-D-Phe-c[Cys-Tyr-D-Trp-Lys-Abu-Cys]-Thr-NH2]: the Ki at SSTR5 turned out to be 10.6 nM; at SSTR3, 215 nM.
